These are literature values, as cited in US8829187B1.

The test system of this data set is rabbit fetuses. To be noted: rabbit fetuses under hypoxic conditions.

With `Cc1cc(N)nc(C[C@@H]2CNC[C@@H]2OCCNCCc2cccc(F)c2)c1`, the “neurological damage to rabbit fetuses” value is recorded as “remarkable reduction in neurological damage”.
